Reference: PubChem BioAssay AID720700 (The Scripps Research Institute Molecular Screening Center, 2013)
This is a selection; strong and weak results do not stand in their true shares. Calls of active or inactive are those of the source. Cut-off read from the data, not from the text of the source: active = inhibition above about 9.5%; inactive = the rest.

Protein sequences, listed by entry. Tags and fused reporters are not part of them.
UniProt P19174, whole entry: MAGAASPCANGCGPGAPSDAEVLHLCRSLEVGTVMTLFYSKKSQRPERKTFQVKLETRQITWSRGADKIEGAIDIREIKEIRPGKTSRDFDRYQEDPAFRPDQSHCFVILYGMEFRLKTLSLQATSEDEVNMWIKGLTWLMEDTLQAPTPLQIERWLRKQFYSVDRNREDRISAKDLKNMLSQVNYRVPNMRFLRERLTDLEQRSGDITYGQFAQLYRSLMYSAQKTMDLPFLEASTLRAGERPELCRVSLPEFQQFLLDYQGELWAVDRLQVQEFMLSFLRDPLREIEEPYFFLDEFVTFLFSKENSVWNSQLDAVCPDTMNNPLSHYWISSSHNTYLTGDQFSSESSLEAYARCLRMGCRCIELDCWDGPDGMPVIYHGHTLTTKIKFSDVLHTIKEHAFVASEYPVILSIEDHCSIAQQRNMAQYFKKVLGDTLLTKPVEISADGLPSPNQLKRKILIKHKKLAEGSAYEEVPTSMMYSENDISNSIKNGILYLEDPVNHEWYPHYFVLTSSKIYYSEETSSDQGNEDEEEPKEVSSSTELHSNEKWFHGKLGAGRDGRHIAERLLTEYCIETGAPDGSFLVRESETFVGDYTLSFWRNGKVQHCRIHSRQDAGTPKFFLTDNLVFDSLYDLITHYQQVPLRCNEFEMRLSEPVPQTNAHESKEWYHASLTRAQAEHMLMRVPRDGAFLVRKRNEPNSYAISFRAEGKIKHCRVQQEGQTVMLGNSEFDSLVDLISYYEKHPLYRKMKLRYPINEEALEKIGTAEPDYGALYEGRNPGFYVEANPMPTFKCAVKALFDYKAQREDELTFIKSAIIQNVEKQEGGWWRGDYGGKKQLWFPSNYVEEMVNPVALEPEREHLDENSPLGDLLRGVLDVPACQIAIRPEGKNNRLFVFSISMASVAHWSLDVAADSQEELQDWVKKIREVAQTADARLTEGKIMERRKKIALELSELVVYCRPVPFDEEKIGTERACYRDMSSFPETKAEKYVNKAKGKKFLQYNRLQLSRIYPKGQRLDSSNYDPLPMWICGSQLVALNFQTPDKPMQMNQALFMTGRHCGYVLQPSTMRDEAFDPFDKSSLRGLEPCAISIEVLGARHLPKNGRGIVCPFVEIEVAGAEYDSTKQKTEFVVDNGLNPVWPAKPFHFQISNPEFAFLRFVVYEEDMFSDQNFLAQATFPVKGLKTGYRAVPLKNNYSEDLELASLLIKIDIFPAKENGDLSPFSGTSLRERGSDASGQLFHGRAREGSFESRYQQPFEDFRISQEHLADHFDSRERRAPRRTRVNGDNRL

The compounds below were run against 1-phosphatidylinositol 4,5-bisphosphate phosphodiesterase gamma-1 (Homo sapiens) (UniProt P19174) (assay: PLC-gamma1 enzyme inhibitors, primary screen, biochemical, fluorescence, purified enzyme (AID 720700)). Conditions: purified PLC-gamma1, fluorogenic substrate, at 12.2 µM, hits give high values.
`CSc1ccccc1C(=O)NCC1(N2CCCCC2)CCCCC1` was tested, and the inhibition was inactive: -2.23%.
For `Cc1cccc(NC2(C#N)CCN(Cc3ccccc3)CC2)c1`, the inhibition was inactive: 7.74%.
With `O=C(NCC1(N2CCCCC2)CCCCC1)c1ccc(=O)[nH]c1` the inhibition was inactive: -1.12%.
`CCCCn1nnnc1C(c1cccs1)N1CCC(n2c(=O)[nH]c3ccccc32)CC1` (stereo not drawn) was tested, and the inhibition was inactive: 0.06%.
`O=C(NCC1(N2CCCCC2)CCCCC1)c1cccs1` was tested, and the inhibition was inactive: -4.7%.
`CCCCn1nnnc1C(CC)N1CCC(n2c(=O)[nH]c3ccccc32)CC1` (stereo not drawn) was tested, and the inhibition was inactive: 1.03%.
In the case of `COc1ccc(C(=O)NCC2(N3CCCCC3)CCCCC2)cc1`, the inhibition is reported as inactive: -1.73%.
In the case of `CCC(c1nnnn1C1CCCC1)N1CCC(n2c(=O)[nH]c3ccccc32)CC1` (stereo not drawn), the inhibition is reported as inactive: 1.74%.
For `CC(C)(C)OC(=O)N1CCC(N(C(=O)c2ccccc2)c2ccc(F)cc2)CC1`, the inhibition was inactive: 4.91%.
With `COc1ccc(C(=O)NCC2(N3CCCCC3)CCCCC2)c(OC)c1OC` the inhibition was inactive: -3.2%.
With `CCOC(=O)N1CCC(Nc2ccc(OC)cc2)CC1` the inhibition was inactive: 0.24%.
For `CCCCn1nnnc1C(c1ccc(OC)cc1)N1CCC(n2c(=O)[nH]c3ccccc32)CC1` (stereo not drawn), the inhibition was inactive: -1.4%.
In the case of `O=c1[nH]c2ccccc2n1C1CCN(C(c2cc3ccccc3o2)c2nnnn2C2CCCCC2)CC1` (stereo not drawn), the inhibition is reported as inactive: -1.12%.
In the case of `O=C(OC1CN2CCC1CC2)C1c2ccccc2Oc2ccccc21` (stereo not drawn), the inhibition is reported as inactive: -0.04%.
For `N#CC1(Nc2ccccc2)CCN(Cc2ccccc2)CC1`, the inhibition was inactive: -1.49%.
`O=C(NCC1(N2CCCCC2)CCCCC1)c1ccc(Cl)s1` was tested, and the inhibition was inactive: -1.45%.
For `COc1ccc(Cl)cc1C(=O)NCC1(N2CCOCC2)CCCCC1`, the inhibition was inactive: 2.75%.
`O=C(NCC1(N2CCOCC2)CCCCC1)c1cc2ccccc2o1` was tested, and the inhibition was inactive: -2.26%.
With `O=c1[nH]c2ccccc2n1C1CCN(C(c2ccccc2OC(F)(F)F)c2nnnn2C2CCCCC2)CC1` (stereo not drawn) the inhibition was inactive: 4.05%.
`O=C(NCC1(N2CCCCC2)CCCCC1)c1ccc(Cl)nc1` was tested, and the inhibition was inactive: -11.2%.
In the case of `Cc1cc(C)cc(N(C(=O)c2ccccc2)C2CCN(C(=O)OC(C)(C)C)CC2)c1`, the inhibition is reported as inactive: 0.8%.
With `CCCCn1nnnc1C(c1ccnc2ccccc12)N1CCC(n2c(=O)[nH]c3ccccc32)CC1` (stereo not drawn) the inhibition was inactive: -0.07%.
`COc1cc(OC)c(C(=O)NCC2(N(C)C)CCCCC2)cc1OC` was tested, and the inhibition was inactive: 2.55%.
In the case of `CCC(c1nnnn1C(C)(C)C)N1CCC(n2c(=O)[nH]c3ccccc32)CC1` (stereo not drawn), the inhibition is reported as inactive: 1.7%.
In the case of `O=C(NCC1(N2CCOCC2)CCCCC1)c1cc(F)c(F)cc1Cl`, the inhibition is reported as inactive: 0.65%.
With `COC(=O)C1(Nc2ccccc2)CCN(Cc2ccccc2)CC1` the inhibition was inactive: -1.33%.
For `COc1ccc(CN(CCCl)CCCl)cc1Cl`, the inhibition was inactive: 7.38%.
In the case of `CN(C)c1cccc(C(=O)NCC2(N3CCCCC3)CCCCC2)c1`, the inhibition is reported as inactive: -53.3%.
`CC(C)c1ccc(NC2CCN(C(=O)OC(C)(C)C)CC2)cc1` was tested, and the inhibition was inactive: -0.22%.
`Cc1ccc(C(=O)NCC2(N(C)C)CCCCC2)o1` was tested, and the inhibition was inactive: 3.16%.
`CCCOc1ccc(C(=O)NCC2(N(C)C)CCCCC2)cc1OC` was tested, and the inhibition was inactive: -1%.
`COc1ccc(C(c2nnnn2C2CCCC2)N2CCC(n3c(=O)[nH]c4ccccc43)CC2)cc1` (stereo not drawn) was tested, and the inhibition was inactive: 5.12%.
In the case of `O=C(NCC1(N2CCCCC2)CCCCC1)c1cncc(Br)c1`, the inhibition is reported as inactive: 2.17%.
In the case of `CN1CCC(Nc2cccc(F)c2)CC1`, the inhibition is reported as inactive: 1.68%.
`CSc1ccc(C(=O)NCC2(N3CCOCC3)CCCCC2)cc1` was tested, and the inhibition was inactive: 2.39%.
With `O=C(NCC1(N2CCCCC2)CCCCC1)c1cccc([N+](=O)[O-])c1` the inhibition was inactive: -0.17%.
In the case of `CCN1CCC(Nc2ccc(Cl)cc2)CC1`, the inhibition is reported as inactive: 3.03%.
With `N#CC1(Nc2ccccc2)CCN(CCc2ccccc2)CC1` the inhibition was inactive: 1.36%.
With `O=c1[nH]c2ccccc2n1C1CCN(C(c2ccccc2OC(F)(F)F)c2nnnn2C2CCCC2)CC1` (stereo not drawn) the inhibition was inactive: -0.04%.
With `CC(C)(C)n1nnnc1C(c1ccccc1OC(F)(F)F)N1CCC(n2c(=O)[nH]c3ccccc32)CC1` (stereo not drawn) the inhibition was inactive: -0.84%.
With `O=C(NCC1(N2CCCCC2)CCCCC1)c1ccc(OC(F)F)cc1` the inhibition was inactive: 1.16%.
For `CCCCn1nnnc1C(c1cccc2ccccc12)N1CCC(n2c(=O)[nH]c3ccccc32)CC1` (stereo not drawn), the inhibition was inactive: 3.27%.
For `CC(C)c1ccc(C(=O)NCC2(N3CCOCC3)CCCCC2)cc1`, the inhibition was inactive: -2.77%.
With `COc1ccc(NC2CCN(C(=O)OC(C)(C)C)CC2)cc1` the inhibition was inactive: 1.13%.
In the case of `CN1CCN(CCOC(=O)C(O)(c2ccccc2)c2ccccc2)CC1`, the inhibition is reported as inactive: 2.57%.
For `O=C(NCC1(N2CCOCC2)CCCCC1)c1cc(=O)[nH]c2ccccc12`, the inhibition was inactive: 0.42%.
For `COc1cc(C(=O)NCC2(N3CCCCC3)CCCCC2)ccc1OC(F)F`, the inhibition was inactive: -2.36%.
In the case of `O=C(NCC1(N2CCCCC2)CCCCC1)c1cccc(C(F)(F)F)c1`, the inhibition is reported as inactive: -2.36%.
